Experimental data: ChEMBL document CHEMBL4422692, “Plant-Based Modulators of Endocannabinoid Signaling” (J Nat Prod, 2019)

Amino acid sequences for entries named in this document (tags omitted).
UniProt P97612, whole entry: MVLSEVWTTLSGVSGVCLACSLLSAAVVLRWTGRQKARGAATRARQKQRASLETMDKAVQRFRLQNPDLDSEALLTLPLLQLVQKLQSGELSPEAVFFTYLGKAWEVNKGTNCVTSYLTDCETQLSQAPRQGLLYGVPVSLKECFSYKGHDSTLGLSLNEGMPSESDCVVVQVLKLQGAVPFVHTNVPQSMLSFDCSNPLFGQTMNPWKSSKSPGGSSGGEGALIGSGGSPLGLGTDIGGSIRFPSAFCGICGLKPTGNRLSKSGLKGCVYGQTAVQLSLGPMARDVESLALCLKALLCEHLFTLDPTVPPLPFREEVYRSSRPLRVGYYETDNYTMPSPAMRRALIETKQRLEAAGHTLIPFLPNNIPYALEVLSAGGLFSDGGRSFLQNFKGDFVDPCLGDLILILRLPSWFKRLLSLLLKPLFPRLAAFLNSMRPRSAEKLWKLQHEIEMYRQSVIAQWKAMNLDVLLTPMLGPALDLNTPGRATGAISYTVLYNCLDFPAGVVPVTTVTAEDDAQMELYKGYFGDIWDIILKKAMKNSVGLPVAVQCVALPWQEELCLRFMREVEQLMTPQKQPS

Target: Fatty-acid amide hydrolase 1 (Rattus norvegicus, UniProt P97612)
Test: Inhibition of FAAH in rat brain membranes using [14C]-AEA as substrate measured after 30 mins by scintillation counting method
Type: cell membranes

**Q.** Which IC50 does the source give for C=C(C)[C@@H]1CCC(C)=C[C@H]1c1c(O)cc(CCCCC)cc1O [CANNABIDIOL] here?
**A.** The IC50 was 53.2 µM.
